Earlier results in patent US20200309767A1, “HIGH-THROUGHPUT IMAGING-BASED METHODS FOR PREDICTING CELL-TYPE-SPECIFIC TOXICITY OF XENOBIOTICS WITH DIVERSE CHEMICAL STRUCTURES” (priority 2015, published 2020).

How the values were obtained:
[1] = test system: human kidney; details: known human kidney toxicity flag 1/0; cited from earlier work
[2] = test system: liver; details: in vivo; cited from earlier work

CC(C)Cc1ccc(C(C)C(=O)O)cc1 (stereo not shown) [Ibuprofen]
Nephrotoxic [1]: 1

C[C@]12CCC(=O)C=C1CC[C@@H]1[C@@H]2[C@@H](O)C[C@@]2(C)[C@H]1CC[C@]2(O)C(=O)CO [Hydrocortisone]
Nephrotoxic [1]: 0

C[C@H]1O[C@H](O[C@H]2[C@H](O)[C@@H](O)[C@@H](O[C@H]3[C@H](O)[C@@H](O)C(O)O[C@@H]3CO)O[C@@H]2CO)[C@H](O)[C@@H](O)[C@@H]1N[C@H]1C=C(CO)[C@@H](O)[C@H](O)[C@H]1O (stereo partly shown) [Acarbose]
Hepatotoxic [2]: 1
Nephrotoxic [1]: 0
